According to ChEMBL document CHEMBL1141075, “4-Oxo-4,7-dihydrothieno[2,3-b]pyridines as non-nucleoside inhibitors of human cytomegalovirus and related herpesvirus polymerases” (J Med Chem, 2005):

Target: T1, DNA polymerase catalytic subunit (Varicella-zoster virus (strain Dumas) (HHV-3) (Human herpesvirus 3), UniProt P09252)
T1 sequence (P09252 whole entry): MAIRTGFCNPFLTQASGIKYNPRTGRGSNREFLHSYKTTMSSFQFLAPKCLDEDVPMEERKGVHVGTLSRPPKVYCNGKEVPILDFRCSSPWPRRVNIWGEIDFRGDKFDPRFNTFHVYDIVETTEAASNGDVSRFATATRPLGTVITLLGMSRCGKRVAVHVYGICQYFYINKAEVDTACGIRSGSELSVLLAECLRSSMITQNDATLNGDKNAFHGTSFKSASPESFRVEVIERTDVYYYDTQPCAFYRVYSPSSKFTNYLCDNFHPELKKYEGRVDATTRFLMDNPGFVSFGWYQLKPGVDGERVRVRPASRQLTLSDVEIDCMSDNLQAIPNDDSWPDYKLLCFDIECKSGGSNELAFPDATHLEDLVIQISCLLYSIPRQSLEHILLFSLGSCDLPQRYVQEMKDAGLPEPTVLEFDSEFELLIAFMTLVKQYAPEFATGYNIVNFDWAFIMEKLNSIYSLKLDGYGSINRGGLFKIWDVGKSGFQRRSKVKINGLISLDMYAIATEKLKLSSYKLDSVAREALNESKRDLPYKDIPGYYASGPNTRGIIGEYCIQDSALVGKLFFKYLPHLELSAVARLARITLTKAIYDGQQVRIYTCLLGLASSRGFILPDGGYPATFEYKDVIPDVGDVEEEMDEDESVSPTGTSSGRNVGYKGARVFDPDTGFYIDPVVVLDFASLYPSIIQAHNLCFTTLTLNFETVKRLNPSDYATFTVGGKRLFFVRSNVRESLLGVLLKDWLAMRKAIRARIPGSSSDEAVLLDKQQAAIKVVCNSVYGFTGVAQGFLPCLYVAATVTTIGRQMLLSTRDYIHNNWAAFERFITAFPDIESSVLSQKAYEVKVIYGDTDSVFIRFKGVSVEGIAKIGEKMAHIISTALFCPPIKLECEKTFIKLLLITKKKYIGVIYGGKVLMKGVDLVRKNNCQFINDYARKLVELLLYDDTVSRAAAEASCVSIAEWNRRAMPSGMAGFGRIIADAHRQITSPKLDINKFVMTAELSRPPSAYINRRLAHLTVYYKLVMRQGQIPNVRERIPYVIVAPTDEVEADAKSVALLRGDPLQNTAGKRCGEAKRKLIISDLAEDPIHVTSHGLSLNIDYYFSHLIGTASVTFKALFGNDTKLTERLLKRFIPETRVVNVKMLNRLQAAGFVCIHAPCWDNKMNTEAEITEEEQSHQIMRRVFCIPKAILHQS
Test: Inhibition of Varicella-Zoster virus DNA polymerase (95 uL) activity in a solution containing […] HEPES (pH 7.5), incubation for 12 minutes at 26 degrees C; [nd = not determined]
Set-up: species or system Human alphaherpesvirus 3

## O=C(O)P(=O)(O)O [FOSCARNET]
  IC50: < 280 nM
